IC50 data for two compounds are collected here from BindingDB's records for US10053433, “Androgen receptor antagonists” (2018).

Sequences of proteins named here, by UniProt entry; tags and fusion partners are left off.
UniProt P10275, whole entry: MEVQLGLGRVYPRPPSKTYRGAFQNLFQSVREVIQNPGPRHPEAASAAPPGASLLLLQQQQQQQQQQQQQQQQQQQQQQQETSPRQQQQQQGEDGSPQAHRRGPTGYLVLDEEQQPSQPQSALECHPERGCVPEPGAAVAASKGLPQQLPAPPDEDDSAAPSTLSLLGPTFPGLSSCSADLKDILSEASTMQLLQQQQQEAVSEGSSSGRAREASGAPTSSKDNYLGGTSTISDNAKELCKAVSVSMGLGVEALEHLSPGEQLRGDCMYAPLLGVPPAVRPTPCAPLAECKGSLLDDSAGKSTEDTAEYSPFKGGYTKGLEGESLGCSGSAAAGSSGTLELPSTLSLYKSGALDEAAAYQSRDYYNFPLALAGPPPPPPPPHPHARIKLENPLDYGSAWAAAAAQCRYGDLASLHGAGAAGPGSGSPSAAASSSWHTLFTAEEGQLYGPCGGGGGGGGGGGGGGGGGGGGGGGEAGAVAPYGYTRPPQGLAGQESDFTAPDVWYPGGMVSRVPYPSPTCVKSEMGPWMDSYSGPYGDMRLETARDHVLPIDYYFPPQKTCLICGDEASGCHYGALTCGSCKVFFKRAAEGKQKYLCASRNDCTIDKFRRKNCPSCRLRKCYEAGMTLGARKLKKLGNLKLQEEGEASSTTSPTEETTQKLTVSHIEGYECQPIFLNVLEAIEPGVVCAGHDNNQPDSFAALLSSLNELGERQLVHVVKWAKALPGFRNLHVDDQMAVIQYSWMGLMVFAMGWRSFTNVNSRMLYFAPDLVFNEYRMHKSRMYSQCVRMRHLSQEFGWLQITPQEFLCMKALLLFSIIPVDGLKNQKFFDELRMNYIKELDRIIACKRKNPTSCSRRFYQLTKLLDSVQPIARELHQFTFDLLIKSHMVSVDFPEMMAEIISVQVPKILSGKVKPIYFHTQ

In general, IC50 refers to the concentration at which inhibition is half-maximal. Low readings indicate inhibition by little substance, high ones a need for much substance.

For assay [1], the target named is T1, Androgen receptor (Homo sapiens, UniProt P10275). The conditions noted are these: pH 7.5.
Assay [2] has as its target T1, Androgen receptor. The note with it: pH 7.5. The source holds these as a separate data set.

As for `C[C@](O)(CS(=O)(=O)c1ccc(F)cc1)C(=O)Nc1cncc(C(F)(F)F)c1`, the concentration for half-maximal inhibition (IC50) is 71.7 µM in assay [1] and 2530 nM in assay [2].

For `C[C@](O)(CS(=O)(=O)c1ccc(F)cc1)C(=O)Nc1cc(C(F)(F)F)ccn1`, the results for the IC50 in assay [1] and in assay [2] were 12.4 µM and 1550 nM, respectively.
